Binding of CDR-mutated scFvs to a peptide of the spike HR2 region

Data: MIT Lincoln Laboratory AlphaSeq set, Engelhart et al. 2022, doi:10.1038/s41597-022-01779-4, as distributed in FLAb.

The target is the same throughout: PDVDLGDISGINAS, from the HR2 region of SARS-CoV-2 spike.

The variants keep the heavy chain, the linker and the frameworks of Ab-14 (scFv order VH, the linker GGGGSGGGGSGGGGS, VL).
VH: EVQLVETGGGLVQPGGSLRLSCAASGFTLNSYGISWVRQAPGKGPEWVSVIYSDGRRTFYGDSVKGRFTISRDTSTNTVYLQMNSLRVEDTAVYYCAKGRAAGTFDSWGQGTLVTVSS
VL: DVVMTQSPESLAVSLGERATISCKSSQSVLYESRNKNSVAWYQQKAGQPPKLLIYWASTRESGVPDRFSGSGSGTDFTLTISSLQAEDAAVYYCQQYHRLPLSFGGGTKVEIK

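Phage display of a naive human antibody library on the peptide gave the parent. AAYL50 was designed without a model: most single CDR substitutions and a random sample of double and triple ones. Affinity was read by AlphaSeq, a pooled yeast mating assay with surface-displayed partners. Binding brings cells together so that they mate, and sequencing counts the barcode pairs among the diploids. Scores were corrected for input abundance and mapped to Kd with protein pairs of known affinity run in the same pool. The assay was run in three technical replicates.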

Positions count from residue 1 of the parent VL; E32D puts D in place of E.
Numbers give log10(Kd / nM), so 0 is 1 nM and 3 is 1 µM. Smaller is tighter.
Replicates are averaged; those with no signal do not enter the mean.
Where no diploid with the target was found in that replicate, the entry reads "nd": below detection, most likely a poor binder, though not proof of it.
Parent in this assay: reference entry 0.65, copy in this library 1.68.

changes,log10 Kd (nM) by replicate,"mean, log10 nM",signal with controls
E32D+R60Q+L102V,nd / 3.88 / 2.99,3.43,3 of 9 (3.77)
A40N+S58K+L102W,0.27 / 0.47 / 0.33,0.36,1 of 9 (4.87)
V29I+L30R+S62G,3.94 / 3.16 / 4.11,3.74,8 of 9 (4.56)
S26T+S58I+H98G,3.33 / 2.71 / 2.73,2.92,4 of 9 (3.89)
L30C+Q96R+S103Q,6.08 / 5.04 / nd,5.56,1 of 9 (5.25)
S26D+R34F+L100T,5.20 / nd / nd,5.20,1 of 9 (4.37)
S58Q+R60M+P101M,nd / 2.87 / nd,2.87,0 of 9
K36G+T59M+Q95N,nd / nd / nd,nd,0 of 9
E32D+S33M+W56S,-0.22 / 0.13 / -0.12,-0.07,4 of 9 (5.06)
Q27V+S28Q+S38K,3.96 / 3.36 / 3.75,3.69,2 of 9 (4.03)
Q27C+K36Y+S58E,nd / nd / nd,nd,0 of 9
K24N+N35Q+E61C,1.50 / 1.52 / 1.86,1.63,0 of 9
N37V+S38N+Q96I,nd / nd / nd,nd,0 of 9
V29K+R99L+S103C,1.64 / 1.57 / 1.85,1.69,1 of 9 (5.37)
L30M+W56K+L102Q,nd / nd / nd,nd,1 of 9 (3.34)
R34F+Y97D+L102I,nd / nd / 4.54,4.54,2 of 9 (4.45)
K24P+A40V,nd / nd / nd,nd,0 of 9
S26I+S33Q+R60D,nd / nd / nd,nd,0 of 9
N35V+N37F+R60N,nd / nd / nd,nd,4 of 9 (4.19)
W56P+S58C+P101W,nd / nd / nd,nd,0 of 9
Q27D+S33Y+W56G,0.12 / 0.25 / 0.09,0.15,1 of 9 (3.00)
S25V+L102I,0.17 / 0.43 / 0.25,0.28,4 of 9 (4.80)
L30C+W56F+Q95F,nd / nd / nd,nd,0 of 9
S25G+S38H+Q95T,3.16 / 2.63 / 2.66,2.82,1 of 9 (4.18)
K24A+E32V+R60G,2.23 / nd / nd,2.23,0 of 9
Q27Y+V29E+S38K,1.39 / 1.49 / 1.76,1.54,0 of 9
S28T+N35L+R99W,nd / nd / nd,nd,0 of 9
L100W+L102W+S103C,nd / nd / nd,nd,0 of 9
Y31C+Q96M+R99W,4.26 / nd / nd,4.26,0 of 9
Q27R+L30C+S38Q,3.13 / 3.55 / 2.41,3.03,1 of 9 (2.86)
L30I+P101V+L102S,nd / nd / nd,nd,0 of 9
S25P+Y97S+H98G,nd / nd / 3.53,3.53,0 of 9
K36M+Y97V,0.05 / 0.47 / 0.23,0.25,1 of 9 (2.08)
K24D+T59S+L102P,nd / nd / nd,nd,0 of 9
S33R+Q95K+P101H,1.70 / 2.82 / 2.19,2.24,1 of 9 (3.43)
S25D+S26D+S33I,2.53 / 2.39 / 2.38,2.43,0 of 9
S25P+V29T+T59G,nd / nd / nd,nd,0 of 9
K24R+E32Y+T59K,3.70 / 3.44 / 4.44,3.86,6 of 9 (4.69)
L30E+E32T+E61K,nd / 2.99 / nd,2.99,0 of 9
S26G+L30D+Y31V,0.23 / 0.52 / 0.39,0.38,4 of 9 (5.41)
W56I+S58V+R60M,4.98 / nd / nd,4.98,3 of 9 (3.54)

Repeated from above, the 4 best binders with a signal in all replicates:

changes,log10 Kd (nM) by replicate,"mean, log10 nM",signal with controls
E32D+S33M+W56S,-0.22 / 0.13 / -0.12,-0.07,4 of 9 (5.06)
Q27D+S33Y+W56G,0.12 / 0.25 / 0.09,0.15,1 of 9 (3.00)
K36M+Y97V,0.05 / 0.47 / 0.23,0.25,1 of 9 (2.08)
S25V+L102I,0.17 / 0.43 / 0.25,0.28,4 of 9 (4.80)

As a blank, each scFv also met three strains without target: over library AAYL50, 18% of these pairings were detected, typically at 4.19 and seldom below 2.99. Also given: how often the same scFv was detected with the empty control strains, with their mean in brackets.